{"source": "patent US11376232B2", "about": "“Vidofludimus for use in the treatment or prevention of viral diseases” (Immunic AG, priority 2020, dated 2022)", "tested_on": "SARS-CoV-2 wild type or original Wuhan strain", "note": "Counter-ions that a name gives are not always drawn."}
{"smiles": "COc1cccc(-c2ccc(NC(=O)C3=C(C(=O)O)CCC3)c(F)c2)c1", "note": "[IMU-838, 1-cyclopentene-1-carboxylic acid, 2-(((3-fluoro-3′-methoxy(1,1′-biphenyl)-4-yl)amino)carbonyl)-, calcium salt (2:1)]", "values": [{"measurement": "reduction of infectivity (CCID50)", "value": "~2", "unit": "log units"}]}
